Earlier results as cited in patent publication US20250332108A1 (Veradermics, Incorporated, priority 2024, published 2025).

Settings: oral; cited from earlier work

Structure (SMILES): Nc1cc(N2CCCCC2)nc(N)[n+]1[O-] [Minoxidil]
- Absorption from the gastrointestinal tract: > 90%
